Experimental data from patent publication US9693954B2, “Co-delivery of stimulatory and inhibitory factors to create temporally stable and spatially restricted zones” (President and Fellows of Harvard College, priority 2010, dated 2017).

Experiment: in vitro cumulative release kinetics from PLG scaffold layers (125I tracers)
Assay type: physicochemical
Settings: PLG scaffold layer, PBS, 37° C.; 4 μg VEGF, 20 μg anti-VEGF incorporated
Description: The total radioactivity of each scaffold layer (n=5) was measured with a WIZARD Automatic Gamma Counter (Perkin Elmer) prior to incubation at 37° C. in 2 mL of PBS. At specific measurement time points, release solutions were measured using the Gamma counter and the scaffolds were placed in fresh release solutions. The cumulative protein release from the scaffolds at each time point was normalized as a percentage of total protein incorporated.

VEGF
protein released in the first 3 days (cumulative, % of total incorporated): Approximately 60%
